{"sequences": {"note": "Protein sequences, listed by entry. Tags and fused reporters are not part of them. Chains listed by the source or under a name are the forms on record and can include a tag or linker. Residues count along the entry.", "UniProt P36888, 27-993": "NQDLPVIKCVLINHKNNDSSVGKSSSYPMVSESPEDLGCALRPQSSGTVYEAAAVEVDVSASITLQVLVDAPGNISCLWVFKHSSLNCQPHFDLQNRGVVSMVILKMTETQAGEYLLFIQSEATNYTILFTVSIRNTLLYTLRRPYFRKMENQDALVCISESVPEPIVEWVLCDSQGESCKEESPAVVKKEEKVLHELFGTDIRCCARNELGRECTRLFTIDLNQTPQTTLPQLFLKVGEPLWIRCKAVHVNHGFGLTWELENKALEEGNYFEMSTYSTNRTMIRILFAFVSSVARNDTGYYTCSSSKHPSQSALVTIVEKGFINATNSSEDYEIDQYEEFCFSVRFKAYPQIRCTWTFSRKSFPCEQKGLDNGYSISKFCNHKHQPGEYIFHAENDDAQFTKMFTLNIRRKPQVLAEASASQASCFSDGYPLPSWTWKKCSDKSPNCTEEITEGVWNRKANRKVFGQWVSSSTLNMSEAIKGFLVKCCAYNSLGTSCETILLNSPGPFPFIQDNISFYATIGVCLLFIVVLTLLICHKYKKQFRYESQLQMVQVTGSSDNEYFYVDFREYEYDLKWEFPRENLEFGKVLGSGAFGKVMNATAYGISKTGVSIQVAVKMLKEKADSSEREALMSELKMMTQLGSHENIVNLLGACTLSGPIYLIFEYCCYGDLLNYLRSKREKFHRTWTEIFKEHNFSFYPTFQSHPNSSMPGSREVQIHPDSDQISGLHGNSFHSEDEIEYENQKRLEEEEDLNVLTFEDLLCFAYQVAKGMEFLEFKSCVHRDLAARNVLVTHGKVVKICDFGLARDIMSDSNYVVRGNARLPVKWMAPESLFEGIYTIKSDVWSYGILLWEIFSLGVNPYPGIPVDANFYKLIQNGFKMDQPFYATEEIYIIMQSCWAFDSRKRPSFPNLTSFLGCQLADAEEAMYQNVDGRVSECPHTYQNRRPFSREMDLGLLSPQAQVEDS", "UniProt P36888, other isoform, or with tags, fused parts or gaps limits assumed, stated change not applied": "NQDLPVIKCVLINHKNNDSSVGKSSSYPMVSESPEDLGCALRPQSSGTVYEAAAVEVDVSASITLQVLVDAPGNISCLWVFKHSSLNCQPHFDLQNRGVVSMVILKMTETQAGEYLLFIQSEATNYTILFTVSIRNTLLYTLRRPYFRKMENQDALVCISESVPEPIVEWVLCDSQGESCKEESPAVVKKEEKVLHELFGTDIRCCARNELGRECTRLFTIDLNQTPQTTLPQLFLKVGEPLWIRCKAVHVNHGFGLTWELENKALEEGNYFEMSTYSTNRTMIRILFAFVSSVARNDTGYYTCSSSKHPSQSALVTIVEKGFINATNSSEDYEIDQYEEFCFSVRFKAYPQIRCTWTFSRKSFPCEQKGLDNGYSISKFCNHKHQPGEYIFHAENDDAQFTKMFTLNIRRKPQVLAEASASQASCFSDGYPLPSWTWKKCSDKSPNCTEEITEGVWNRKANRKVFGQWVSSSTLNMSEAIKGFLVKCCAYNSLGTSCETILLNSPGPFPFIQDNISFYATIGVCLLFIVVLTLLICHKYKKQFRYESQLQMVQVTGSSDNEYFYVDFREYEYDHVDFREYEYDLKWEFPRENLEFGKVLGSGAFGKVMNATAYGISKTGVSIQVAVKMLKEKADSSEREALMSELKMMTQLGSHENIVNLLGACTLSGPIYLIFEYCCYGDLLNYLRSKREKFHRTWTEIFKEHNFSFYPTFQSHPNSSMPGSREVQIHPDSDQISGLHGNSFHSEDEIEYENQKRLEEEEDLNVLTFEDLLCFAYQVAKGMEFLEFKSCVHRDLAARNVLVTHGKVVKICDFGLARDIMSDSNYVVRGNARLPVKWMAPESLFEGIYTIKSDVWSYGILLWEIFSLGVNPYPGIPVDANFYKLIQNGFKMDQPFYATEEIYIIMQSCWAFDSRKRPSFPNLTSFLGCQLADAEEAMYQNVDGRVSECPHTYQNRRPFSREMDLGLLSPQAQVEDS"}, "source": "patent US9725465B2", "about": "“Biaryl acetamide compounds and methods of use thereof” (Ambit Biosciences Corporation, priority 2013, dated 2017)", "key": {"FLT3 kinase": {"target": "FLT3 kinase (Homo sapiens (Human), UniProt P36888)", "experiment": "Competition binding assay (Kd), FLT3"}, "FLT3-ITD": {"target": "FLT3-ITD (Homo sapiens (Human), UniProt P36888, INS600HVDFREYEYD)", "experiment": "pFLT3 MSD assay, Ba/F3 FLT3-ITD", "type": "cell-based", "conditions": "read-out: BaF3-FLT3-ITD pFlt3 IC50", "procedure": "Exemplary assays are described in the Example section.\nThe effects of the compounds of Formula I provided herein, on the tyrosine kinase activity of the FLT3 mutants were determined by pFLT3 MSD (Meso Scale Discovery) electrochemiluminescence assay. […] Cells were plated at 200,000 cells/well in 96-well round bottom plates in low serum, and 3-fold serial dilutions of test compounds were added for 2 hours at 37° C. Cells were washed with PBS, lysed with 30 uL/well of cell lysis buffer (Cell Signaling Technology), and 25 uL/well were applied to FLT3 MSD capture plates that were pre-coated with anti-FLT3 monoclonal antibody (R&D Systems Catalog #MAB8121). After an overnight incubation at 4° C. shaking at 450 rpm, plates were washed with MSD wash buffer, and captured FLT3 was detected with biotinylated-anti-phosphotyrosine antibody 4G10 (Millipore) and SulfoTAG-streptavidin (MSD) for 1 hour at room temperature, and read on an MSD SECTOR Imager 6000. Percent remaining phospho-FLT3 in compound-treated cells was normalized to DMSO-treated cells, and IC50s were determined using Igor Pro software. All compounds are assayed in duplicate cell and MSD plates."}}}
{"smiles": "COc1cc2nc(-c3ccc(CC(=O)Nc4cc(C(C)(C)C(F)(F)F)on4)c(F)c3)cnc2cc1OCCN1CCOCC1", "note": "[Example 171, 2-[2-fluoro-4-[7-methoxy-6-(2-morpholino-ethoxy)quinoxalin-2-yl]phenyl]-N-[5-(2,2,2-trifluoro-1,1-dimethyl-ethyl)isoxazol-3-yl]acetamide]", "values": [{"measurement": "Kd", "setting": "FLT3 kinase", "result": "< 5", "unit": "nM"}, {"measurement": "IC50", "setting": "FLT3-ITD", "result": "< 10", "unit": "nM"}]}
